High-throughput results: PubChem, National Center for Advancing Translational Sciences (NCATS)
TDP1 inh – TDP1 (human) enzyme inhibition. recombinant TDP1, AlphaScreen DNA substrate cleavage. Potency, µM (series often up to 130 µM), for inactives: at the top dose activity change, negative = inhibition, most hits filed as inhibitors. hit rate 0.28% among 350,000. AID 485290; further: potency means the concentration at half of the fitted maximal effect; on the % scale 0 is the no-effect control and ±100 the full control effect; nearly all actives have a fitted effect of over 40% in size
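E. coli-derived human Tdp1, 1 nM final. Cpd preinc 15 min RT; substrate 15 nM final, 5 min RT; AS bead mix 10 ug/ml final, 10 min RT. Signal loss = tyrosine-FITC cleavage. No-enzyme wells = max signal.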
DT40 TDP1 CPT – DT40-hTDP1 cell growth loss with CPT; chicken DT40 Tdp1-/-;hTDP1 cells + 20 nM CPT, ATP luminescence, 48 h; Potency, µM (doses to about 46.2 µM), inactives show at the highest dose activity change, negative = growth inhibition, usual class: inhibitors; hit rate 12% among 420,000; AID 686979; further: potency means the concentration at half of the fitted maximal effect; on the % scale 0 is the no-effect control and ±100 the full control effect; nearly all actives have a fitted effect of over 55% in size
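Chicken DT40 Tdp1-/- cells stably complemented with human TDP1 were seeded at 400 cells/well in medium containing 20 nM camptothecin, exposed to pin-transferred compounds, and grown at 37 °C for at least 48 hr. Viability was read as ATP luminescence.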
miR-21 reporter – miR-21 reporter, rising signal | AID 2288 | HeLa miR-21 FLuc reporter, luciferase, 48 h | 340,000 tested, under 10 active | Potency, µM (titrated, usually from 38.3 µM), for the others: at the top dose reporter change, positive = more light; active = well fitted rising curve with a large enough effect; inconclusive = small, poorly fitted or top-dose-only effect; inactive = no such curve, though single readings can be large or run the other way;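 also: % of control where 0% means no effect; miR-21 action dims this reporter so a rising signal means less miR-21 action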
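HeLa cells endogenously expressing miR-21, stably carrying CMV-driven firefly luciferase with a downstream miR-21 binding site, 2000 cells/well. Titrations up to approximately 40 uM, 48 hours; luciferase luminescence read.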
DT40 TDP1 no CPT – qHTS for Inhibitors of human tyrosyl-DNA phosphodiesterase 1 (TDP1): qHTS in cells in absence of CPT | hit rate 15% among 420,000 | DT40 Tdp1-/- hTDP1 cells, no CPT, ATP luminescence, 48 h | AID 686978, 2013 | Potency, µM (top dose mostly 46.2 µM), inactives show at the top dose activity change, negative = growth inhibition, most hits filed as inhibitors; further: potency means the concentration at half of the fitted maximal effect; on the % scale 0 is the no-effect control and ±100 the full control effect; nearly all actives have a fitted effect of over 55% in size
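DT40 Tdp1-/-;hTDP1 cells, no CPT (DMSO vehicle only), 400 cells/well; compounds pin-transferred; ≥48 hr, 37 °C; CellTiter-Glo 30 min RT dark, luminescence read.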
uPA surface inh – cell surface uPA generation inhibition | cell surface uPA generation assay, qHTS | Potency, µM (series often up to 38.3 µM), for the others: top-dose activity change, negative = inhibition, hits mostly inhibitors | hit rate 0.31% among 330,000; active means well fitted inhibition curve with a large enough effect; inconclusive means small, poorly fitted or top-dose-only effect; inactive means no such curve, though single readings can be large or run the other way; tested in mouse RAW 264.7 cells; further: potency means the concentration at half of the fitted maximal effect; on the % scale 0 is the no-effect control and ±100 the full control effect; nearly all actives have a fitted effect of over 55% in size
Active calls of the source: *; ? = inconclusive; · = no result given. The list is not random: actives were taken first. Their share in the collection is about 16%. Unless noted, the call rests on the fitted dose curve; in most records, active means well fitted curve in the direction sought with a large enough effect; inconclusive means small, poorly fitted or top-dose-only effect, or another doubt; inactive means no such curve, though single readings can be large; an effect the other way counts as inactive or inconclusive.

#1 CC(=O)N1c2ccc(S(=O)(=O)NCC3CCC(C(=O)Nc4ccccc4C)CC3)cc2CC1C (stereo not drawn)
#2 CCC(C)NC(=O)C1CCC(CNS(=O)(=O)c2ccc3c(c2)CC(C)N3C(C)=O)CC1 (stereo not drawn)
#3 CC(=O)N1c2ccc(S(=O)(=O)NCC3CCC(C(=O)N4CC(C)CC(C)C4)CC3)cc2CC1C (stereo not drawn)
#4 CC(=O)N1c2ccc(S(=O)(=O)NCC3CCC(C(=O)Nc4ccc(C)cc4)CC3)cc2CC1C (stereo not drawn)
#5 CC(=O)N1c2ccc(S(=O)(=O)NCC3CCC(C(=O)NCc4ccc(C)o4)CC3)cc2CC1C (stereo not drawn)
#6 CC(=O)N1c2ccc(S(=O)(=O)NCC3CCC(C(=O)Nc4cc(C)ccc4C)CC3)cc2CC1C (stereo not drawn)
#7 CC(=O)N1c2ccc(S(=O)(=O)NCC3CCC(C(=O)Nc4ncccc4C)CC3)cc2CC1C (stereo not drawn)
#8 CC(=O)N1c2ccc(S(=O)(=O)NCC3CCC(C(=O)Nc4cccc(F)c4)CC3)cc2CC1C (stereo not drawn)
#9 Cc1cc(N(C)N)nc(NC(=O)NS(=O)(=O)c2ccccc2Cl)n1
#10 COc1ccc(/C=N/NC(=O)Nc2cccc3nsnc23)c(OC)c1
entry no.,1,2,3,4,5,6,7,8,9,10
TDP1 inh,5.1%,3.3%,3.4%,0.0%,4.8%,-2.6%,3.7%,2.6%,·,-8.3%
DT40 TDP1 CPT,25.9µM*,?,16.4µM*,?,?,23.1µM*,?,3.26µM*,-0.8%,11.6µM*
miR-21 reporter,13.6%,0.2%,20.7%,24.2%,10.3%,23.0%,7.4%,?,-27.9%,-6.4%
DT40 TDP1 no CPT,20.6µM*,-8.8%,13µM*,?,-5.9%,18.4µM*,-2.8%,11.6µM*,-3.4%,10.3µM*
uPA surface inh,·,2.1%,-18.6%,·,-7.1%,·,1.0%,·,-0.5%,8.3%

Whole records, looked up by structure. Order of screens: TDP1 inh, DT40 TDP1 CPT, miR-21 reporter, DT40 TDP1 no CPT, uPA surface inh
CC(=O)N1c2ccc(S(=O)(=O)NCC3CCC(C(=O)Nc4ccc(C)cc4)CC3)cc2CC1C (stereo not drawn) is listed with 0.0%, ?, 24.2%, ?, ·
CC(=O)N1c2ccc(S(=O)(=O)NCC3CCC(C(=O)Nc4ccccc4C)CC3)cc2CC1C (stereo not drawn) is listed with 5.1%, 25.9µM*, 13.6%, 20.6µM*, ·
COc1ccc(/C=N/NC(=O)Nc2cccc3nsnc23)c(OC)c1 is listed with -8.3%, 11.6µM*, -6.4%, 10.3µM*, 8.3%
CC(=O)N1c2ccc(S(=O)(=O)NCC3CCC(C(=O)Nc4cccc(F)c4)CC3)cc2CC1C (stereo not drawn) is listed with 2.6%, 3.26µM*, ?, 11.6µM*, ·

(more compounds)
#11 O=C(N/N=C/c1ccc(O)cc1)Nc1cccc2nsnc12
#12 CCOc1cccc2sc(NC(=O)CS(=O)(=O)c3ccc(C)cc3)nc12
#13 CCOC(=O)Cc1csc(NC(=O)/C=C/c2ccc(Cl)cc2)n1
#14 CCC(C)C(NC(=O)C1CCC(C)CC1)C(=O)NC(C(=O)OC)C(C)C (stereo not drawn)
#15 CCOC(=O)Cc1csc(NC(=O)Nc2ccc(F)cc2)n1
#16 CCOC(=O)Cc1csc(NC(=O)Cn2cnc3c2c(=O)n(C)c(=O)n3C)n1
#17 CCOC(=O)Cc1csc(NC(=O)/C=C/c2ccco2)n1
#18 CCOC(=O)C(C)NC(=O)C(NC(=O)C1CCC(CC)CC1)C(C)C (stereo not drawn)
#19 CCN(CC(=O)NCc1cccs1)C(=O)CN(C)S(=O)(=O)c1ccc(C)cc1
#20 Cn1c(-c2ccccc2)c(Sc2ccccc2)c2cc(-c3ccc4[nH]ccc4c3)ccc21
entry no.,11,12,13,14,15,16,17,18,19,20
TDP1 inh,0.0%,10.4%,-1.9%,2.9%,-5.1%,-7.7%,-4.3%,-5.1%,·,·
DT40 TDP1 CPT,-11.7%,-9.8%,18.4µM*,-14.6%,?,16.4µM*,-11.0%,14.6µM*,-18.1%,?
miR-21 reporter,-32.8%,3.7%,18.8%,-2.6%,2.7%,5.7%,-5.7%,-5.0%,·,·
DT40 TDP1 no CPT,20.6µM*,-27.3%,?,?,18.4µM*,-79.6%,-10.6%,?,-18.2%,-26.7%
uPA surface inh,2.1%,·,?,-2.7%,13.1%,0.7%,-27.3%,-1.1%,19.1%,·

#21 CC1CCN(C(=O)c2ccc(-n3cnnn3)cc2)CC1
#22 CCN(CC)C(=O)Cn1cc(C(=O)C(=O)NCc2cccnc2)c2ccccc21
#23 CCOC(=O)Cc1csc(NC(=S)NC(=O)c2cc(OC)c(OC)c(OC)c2)n1
#24 CCOC(=O)Cc1csc(NC(=O)c2sc3nc4c(C)cc(C)cc4cc3c2N)n1
#25 CCOC(=O)Cc1csc(N/C(=N/S(=O)(=O)c2ccc(Cl)cc2)c2ccccc2)n1
#26 CCOC(=O)Cc1csc(NS(=O)(=O)c2ccc(Cl)cc2)n1
#27 CCOC(=O)Cc1csc(NC(=O)C(NC(=O)C2CCC(C)CC2)C(C)C)n1 (stereo not drawn)
#28 CCc1ccccc1NC(=O)Nc1cccc(F)c1
#29 COc1c(C)cc(C(=O)C2CCCN(C(=O)Cn3nc(C)nc3C)C2)cc1C (stereo not drawn)
#30 O/N=C/c1ccc2cccc(OCc3ccccc3)c2n1
entry no.,21,22,23,24,25,26,27,28,29,30
TDP1 inh,-2.2%,4.3%,7.5%,-2.6%,-1.9%,-2.3%,·,2.4%,2.2%,·
DT40 TDP1 CPT,1.6%,4.8%,?,?,?,-7.9%,?,?,-0.3%,-3.9%
miR-21 reporter,-8.5%,-0.4%,1.7%,-19.0%,1.2%,-5.7%,-0.4%,-3.3%,-6.0%,-2.2%
DT40 TDP1 no CPT,-24.8%,19.5%,11.6µM*,18.4µM*,29.1µM*,0.5%,8.2µM*,-21.0%,10.0%,-1.7%
uPA surface inh,0.5%,2.0%,-14.8%,-26.1%,-1.6%,2.5%,-0.3%,-4.6%,-0.1%,7.5%

#31 NC(N)=N/N=C/c1ccc2cccc(OCc3ccccc3)c2n1
#32 NC(=S)N/N=C/c1ccc2cccc(OCc3ccccc3)c2n1
#33 Cc1csc(N(C)C(=O)CSc2nnc(COc3cccc4ccccc34)o2)n1
#34 CCN(C(=O)CN1C(=S)NC(C)(C)CC1C)c1ccc(C)c(C)c1 (stereo not drawn)
#35 Cc1ccc(NC(=O)CN2C(=S)NC(C)(C)CC2C)cc1Cl (stereo not drawn)
#36 Cc1ccc(OCc2cc(=O)n3c4c(sc3n2)CCCC4)cc1C
#37 CC(NC(=O)c1ccc([N+](=O)[O-])cc1[N+](=O)[O-])c1ccc(-c2ccccc2)cc1 (stereo not drawn)
#38 CCC(NC(=O)c1ccc([N+](=O)[O-])cc1[N+](=O)[O-])c1ccccc1 (stereo not drawn)
#39 O=C(CSc1n[nH]c(=O)[nH]c1=O)Nc1ccc(C(=O)O)cc1
#40 COc1ccc(C(=O)Nc2ccccc2N2CCOCC2)cc1[N+](=O)[O-]
entry no.,31,32,33,34,35,36,37,38,39,40
TDP1 inh,·,·,6.6%,3.7%,2.6%,-1.3%,1.9%,1.1%,0.0%,4.5%
DT40 TDP1 CPT,9.2µM*,?,5.8µM*,14.6µM*,?,3.3%,13µM*,-28.8%,12.2%,-15.3%
miR-21 reporter,26.0%,-1.8%,8.8%,-3.2%,12.5%,-13.8%,-0.7%,3.6%,0.0%,0.1%
DT40 TDP1 no CPT,7.31µM*,29.1µM*,5.8µM*,23.1µM*,?,-4.3%,13µM*,?,-2.1%,?
uPA surface inh,-10.4%,-0.3%,-1.6%,-0.2%,1.0%,·,-0.1%,-3.3%,-8.3%,6.2%

#41 COc1ccc(C(=O)NC(=S)Nc2ccccc2N2CCOCC2)cc1[N+](=O)[O-]
#42 COc1ccc(C(=O)NC(=S)Nc2ccc(N3CCOCC3)c(Cl)c2)cc1[N+](=O)[O-]
#43 CSc1ccc(Cl)c(C(=O)N2CCN(CC(=O)N3CCCC3)CC2)c1
#44 CCCCCCCCN1[C@@H](CC(=O)OCC)c2cc(C(F)(F)F)ccc2S1(=O)=O
entry no.,41,42,43,44
TDP1 inh,5.6%,3.4%,-1.0%,·
DT40 TDP1 CPT,16.4µM*,13µM*,-4.8%,?
miR-21 reporter,-1.4%,2.5%,·,·
DT40 TDP1 no CPT,16.4µM*,20.6µM*,-6.5%,16.4µM*
uPA surface inh,-8.5%,12.7%,-11.3%,5.1%
